# Laboratory results from article PMC8958511, “Development of Sulfamoylated 4-(1-Phenyl-1H-1,2,3-triazol-4-yl)phenol Derivatives as Potent Steroid Sulfatase Inhibitors for Efficient Treatment of Breast Cancer” (Journal of Medicinal Chemistry, 2022).
# Assay: blood morphology, blood biochemistry and organ weights of mice with 67NR tumor
# Conditions: Table S2, mice with 67NR tumor, 50 mg/kg
smiles,measurement,value
"NS(=O)(=O)Oc1ccc(-c2cn(-c3cc(F)cc(F)c3)nn2)cc1 [5l, 4-(1-(3,5-difluorophenyl)-1H-1,2,3-triazol-4-yl)phenyl sulfamate]",MPV,"5±0,1 fL"
